Experimental data published in ChEMBL document CHEMBL1140563, “Redefining the structure-activity relationships of 2,6-methano-3-benzazocines. 5. Opioid receptor binding properties of N-((4'-phenyl)-phenethyl) analogues of 8-CAC” (Bioorg Med Chem Lett, 2007).
Active and inactive are the calls of the source. The calls are words filed in the database; no cut-off is given here.

Protein sequences, listed by entry. Tags and fused reporters are not part of them. Lines headed by an entry give the natural chain unless they say otherwise; changes in a name come on top.
UniProt P41145: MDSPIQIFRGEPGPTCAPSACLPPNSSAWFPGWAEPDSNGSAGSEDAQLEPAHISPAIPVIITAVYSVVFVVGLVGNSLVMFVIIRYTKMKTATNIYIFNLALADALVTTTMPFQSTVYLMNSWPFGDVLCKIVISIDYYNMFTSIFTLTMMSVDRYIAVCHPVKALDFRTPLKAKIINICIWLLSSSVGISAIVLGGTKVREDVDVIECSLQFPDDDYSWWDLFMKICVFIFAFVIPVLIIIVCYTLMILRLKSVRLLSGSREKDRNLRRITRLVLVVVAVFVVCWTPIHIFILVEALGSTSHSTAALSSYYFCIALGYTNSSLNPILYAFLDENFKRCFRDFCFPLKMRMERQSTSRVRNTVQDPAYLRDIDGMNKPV

Experiments:
[1] = biological target: T1, Kappa-type opioid receptor (Homo sapiens, UniProt P41145); assay: Agonist activity at human kappa opioid receptor expressed in CHO cell membrane by [35S]GTP-gamma-S binding assay; assay type: functional, cell membranes
[2] = biological target: T1, Kappa-type opioid receptor; assay: Antagonist activity at human kappa opioid receptor expressed in CHO cell membrane assessed as inhibition of U50,488 induced [35S]GTPgammaS binding; assay type: functional, cell membranes

C[C@H]1C2Cc3ccc(C(=O)NCCc4ccc(-c5ccccc5)cc4)cc3[C@@]1(C)CCN2CC1CC1
Emax [1]: 87%
Activity [2]: inactive
